Reference: patent US6420120B1, “Use of a polypeptide as cell receptor for adenoviruses” (priority 1997, dated 2002)

System: HeLa cells
Assay: Cytotoxicity of the peptides on HeLa cells
Format: cell-based, human
Procedure: The peptides FN20 and MH20 are tested with respect to the attachment of the reporter adenovirus Ad5Luc3 to HeLa cells cultured in vitro. The test is carried out in part at 0° C., a temperature which allows the attachment of the viruses to the surface of the permissive cells but, on the other hand, blocks the entry of the viruses and the recycling of the receptors. Ad5Luc3 (MOI 0.16 pfu/10^5 cells) is previously incubated with increasing quantities of peptides (0.01 to 500 nM) at room temperature for 2 hours and the mixture is then added to a cell culture placed on ice. After 1 h at 0° C., the nonadsorbed viruses and the peptides are removed by washing and the culture is continued for 18 h at 37° C. after adding a preheated medium. The cellular lysates are prepared in a conventional manner and the luciferase activity expressed in RLU (for Relative Light Units) is determined (Promega substrate, Madison, Wis.; Lumat LB-9501 luminometer, Brethold Bioanalytical, Wildbad, Germany).

For CC[C@H](C)[C@H](NC(=O)[C@H](Cc1c[nH]cn1)NC(=O)[C@@H](N)CCCNC(=N)N)C(=O)N[C@@H](CC(C)C)C(=O)N[C@@H](Cc1c[nH]c2ccccc12)C(=O)N[C@H](C(=O)N1CCC[C@H]1C(=O)N[C@@H](C)C(=O)N[C@@H](CC(N)=O)C(=O)N[C@H](C(=O)N1CCC[C@H]1C(=O)N[C@@H](C)C(=O)N[C@@H](CCSC)C(=O)NCC(=O)N[C@@H](Cc1ccc(O)cc1)C(=O)N[C@@H](CC(C)C)C(=O)N[C@@H](C)C(=O)N[C@@H](CCCNC(=N)N)C(=O)N[C@H](C(=O)N[C@@H](CO)C(=O)O)C(C)C)[C@@H](C)O)[C@@H](C)O [FN20], the cytotoxicity was “no apparent cytotoxicity”.
With CC[C@H](C)[C@H](NC(=O)[C@H](C)NC(=O)[C@@H](N)CCCNC(=N)N)C(=O)N[C@H](C(=O)NCC(=O)N[C@@H](Cc1ccccc1)C(=O)N[C@@H](CCCNC(=N)N)C(=O)N[C@H](C(=O)N[C@@H](CCC(N)=O)C(=O)N[C@@H](Cc1c[nH]c2ccccc12)C(=O)N[C@@H](CC(C)C)C(=O)N[C@@H](CCCNC(=N)N)C(=O)N[C@@H](CCCNC(=N)N)C(=O)N[C@@H](Cc1ccc(O)cc1)C(=O)N[C@@H](Cc1ccccc1)C(=O)N[C@H](C(=O)N[C@@H](CC(N)=O)C(=O)NCC(=O)N[C@@H](CO)C(=O)N[C@@H](CCCNC(=N)N)C(=O)O)C(C)C)C(C)C)C(C)C [MH20] the cytotoxic effect (50 μM peptide) was “no cytotoxic effect”.
